Results on 1 compound are retold here after patent US7541342B2, “Use of PKC-activating compounds as cardioprotectants and as apoptosis-inducing anti-tumor agents” (University of Tennessee Research Foundation, priority 2005, dated 2009).

The test system of one test is K562 cells. The test is described as follows: Cytotoxicity analysis in K562 cells. To be noted: 0.25 μM alone, 72 hours.
A further test has as its system Bcr-Abl. The test is described as follows: Bcr-Abl expression immunoblot in K562 cells. Conditions: 72 hrs; imatinib 10 μM, AD 198 or AD 288 0.25 μM. On the technique in general: In western blotting, separated proteins are transferred to a membrane and probed.

Turning to `CCCCC(=O)OCC(=O)[C@]1(O)Cc2c(O)c3c(c(O)c2[C@@H](O[C@H]2C[C@H](NCc4ccccc4)[C@H](O)[C@H](C)O2)C1)C(=O)c1c(OC)cccc1C3=O` [AD 198, N-benzyladriamycin-14-valerate], the “loss of cells, single agent” value with K562 cells is on record as “only marginal loss of cells”. Moreover, the “Bcr-Abl expression, single agent” value in the test with Bcr-Abl is on record as “slight decrease”.
